Amino acid sequences for entries named in this document (tags omitted).
UniProt P19327, whole entry: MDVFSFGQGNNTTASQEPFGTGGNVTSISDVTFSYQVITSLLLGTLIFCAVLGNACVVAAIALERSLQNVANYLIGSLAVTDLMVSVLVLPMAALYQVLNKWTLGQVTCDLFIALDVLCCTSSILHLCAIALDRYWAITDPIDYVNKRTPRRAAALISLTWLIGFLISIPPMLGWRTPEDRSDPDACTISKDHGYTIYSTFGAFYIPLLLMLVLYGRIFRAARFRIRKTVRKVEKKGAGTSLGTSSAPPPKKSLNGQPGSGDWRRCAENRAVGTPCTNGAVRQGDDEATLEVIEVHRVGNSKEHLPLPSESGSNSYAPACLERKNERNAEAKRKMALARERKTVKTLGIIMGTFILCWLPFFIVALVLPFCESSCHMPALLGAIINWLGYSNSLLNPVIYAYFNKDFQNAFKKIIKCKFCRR

In patent US5002948A, “3-[4-[4-substituted-1-piperazinyl]-1-butyl]-1H-2,3-dihydroindoles” (H. Lundbeck A/S, priority 1988, dated 1991):

Target: T1, serotonin 5-HT1A receptors (Rattus norvegicus, UniProt P19327)
T1 construct: membranes from rat brain minus cerebellum; from tissue; host or cells: brain minus cerebellum of male Wistar (Mol:Wist) rats, membranes
Test: Inhibition of 3H-8-OHDPAT binding to serotonin 5-HT1A receptors in rat brain in vitro
Conditions: IC50 (3H 8-OH DPAT binding), 3H-8-OHDPAT 1 nM, rat brain membranes minus cerebellum, 37° C., 15 min
Protocol: INHIBITION OF ^3 H-8-OHDPAT BINDING TO SEROTONIN 5-HT1A RECEPTORS IN A RAT BRAIN IN VITRO
By this method the inhibition by drugs of the binding of ^3 H-8-OHDPAT (1 nM) to serotonin 5-HT1A receptors in membranes from rat brain minus cerebellum is determined in vitro.
Male Wistar (Mol:Wist) rats (125-250 g) are sacrificed and the brain is dissected and weighed. The brain tissue minus cerebellum is homogenized (Ultra Turrax, 20 sec) in 10 ml of ice cold 50 mM Tris buffer pH 8.0 (at 25° C.) containing 120 mM NaCl, 4 mM CaCl2 and 4 mM MgCl2. The homogenate is centrifuged at 20,000 g for 10 min at 4° C. The pellet is homogenized in 10 ml of buffer and incubated at 37° C. for 10 min. The homogenate is centrifuged as above and the pellet is homogenized in 100 vol (w/v) ice cold buffer containing 10 μ M of parglyine.
Incubation tubes kept on ice in triplicate receive 100 μl of drug solution in water (or water for total binding) and 1000 μ l of tissue suspension (final tissue content corresponds to 10 mg original tissue). The binding experiment is initiated by addition of 100 μ l of ^3 H-8-OHDPAT (final concentration 1 nM) and by placing the tubes in a 37° C. water bath. […] After shaking for 1 h and storage 2 h in the dark the content of radioactivity is determined by liquid scintillation counting. […]

SMILES: CC1(C)CC(=O)N(CCCCN2CCN(c3ncccn3)CC2)C(=O)C1 [gepirone, reference compound]
- IC50: 310 nM
